Source: PubChem BioAssay AID2716 (Broad Institute, 2010)
The list shows a part of the results, in another mix than the full data. Activity calls are given as the source filed them.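 How the source made its calls: active means every valid replicate shows activation above 250% relative to neutral control wells; inactive means the rest, any valid replicate at or below 250%.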

Assay: restored growth of temperature-sensitive Mot1-301 yeast – S. cerevisiae, ATP luminescence, 38.5C, SUMOylation pathway inhibitor project, primary screen (AID 2716);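 further: OY570 slx delta 5 strain wells were the positive control but not used for scaling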
Settings: S. cerevisiae Mot1-301 growth rescue, at 18.8 µM, stronger effect = higher value, percent above DMSO median, 100 means doubled

| SMILES | growth rescue |
| --- | --- |
| Clc1n[nH]nc1-c1nn[nH][15n]1 | inactive: 9.04% |
| CC(C)(C)C(=O)NC(Sc1ncccn1)C(Cl)(Cl)Cl (stereo unspecified) | inactive: -2.09% |
| CCOP(=O)(Nc1ccc(C)cn1)OCC | inactive: -8.4% |
| CN(CCCl)Cc1cc(Cl)c(NC2=NCCN2)c(Cl)c1 | inactive: 1.29% |
| O=P1(Nc2ccccn2)COc2ccccc2OC1 | inactive: -1.7% |
| CCC1=CC2Cc3nc4ccc(Cl)cc4c(N)c3C(C1)C2 (stereo unspecified) | inactive: 13.6% |
| CCOP(=O)(NC(=NC(C)c1ccccc1)NC(C)c1ccccc1)OCC (stereo unspecified) | inactive: 40.6% |
| O=[As](O)(c1ccccc1Br)c1ccccc1Br | inactive: 2.16% |
| CC1(CBr)Cn2c(nc3ccccc3c2=O)S1 (stereo unspecified) | inactive: -24.2% |
| CC(C)/C=N\N=C(\N)N[N+](=O)[O-] | inactive: 135% |
| CN(C(=O)Cc1ccc(Cl)c(Cl)c1)[C@@H]1CCCC[C@H]1N1CCCC1 | inactive: -15% |
| COc1ccccc1CNC(=O)COC(=O)C(O)(c1ccccc1)c1ccccc1 | inactive: -12.4% |
| O=C(/C=C/c1ccccc1)OC1CN2CCC1CC2 (stereo unspecified) | inactive: 4.87% |
| CN(C)C1(CNC(=O)c2ccc(S(C)(=O)=O)cc2)CCCCC1 | inactive: 17.1% |
| Cc1nn(-c2ccccc2)c2c1P(=O)(N1CCOCC1)N(C)C(c1ccccc1)=N2 (stereo unspecified) | inactive: 171% |
| CC1CCC(C(C)C)C(OP(=O)(Nc2ccccn2)c2ccccc2)C1 (stereo unspecified) | inactive: 13.4% |
| Cc1ccc(C(=O)OC2CN3CCC2CC3)cc1 (stereo unspecified) | inactive: 211% |
| O=[As](O)(c1cccs1)c1cccs1 | inactive: 545% |
| Cc1ccc(OCC(=O)OC2CN3CCC2CC3)cc1 (stereo unspecified) | inactive: 6.07% |
| O=P1(Nc2ccc(Br)cn2)COc2ccccc2OC1 | inactive: -19.7% |
| NS(=O)(=O)c1cccc(NC(=O)COC(=O)C(O)(c2ccccc2)c2ccccc2)c1 | inactive: -15.9% |
| Nc1cccc([As](=O)(O)c2ccccc2)c1 | inactive: 36% |
| O=P1(Nc2ncccn2)COc2ccccc2OC1 | inactive: -1.91% |
| Nc1ccccc1[As](=O)(O)c1ccccc1 | inactive: -15.2% |
| O=C(O)COc1ccc([As](=O)(O)O)cc1[N+](=O)[O-] | inactive: 12.4% |
| CS(=O)(=O)c1cc([N+](=O)[O-])c2no[n+]([O-])c2c1 | inactive: 75.2% |

| SMILES | growth rescue |
| --- | --- |
| CCOP1(=S)c2c(C)nn(CCC#N)c2N=C(c2ccccc2F)N1C (stereo unspecified) | inactive: 1.82% |
| O=P(Nc1nccs1)(Oc1ccccc1)Oc1ccccc1 | inactive: 9.68% |
| O=P(Nc1nccs1)(c1ccccc1)c1nc2ccccc2s1 (stereo unspecified) | inactive: 13.3% |
| O=[N+]([O-])c1ccc2c(c1)nnn2O | inactive: 13.5% |
| CN(C)C(=O)c1cc([N+](=O)[O-])cc2c1-c1c(cc([N+](=O)[O-])cc1[N+](=O)[O-])C2=O | inactive: 60.3% |
| CN(C(=O)Cc1ccc(Cl)c(Cl)c1)[C@H]1CC[C@@]2(CCCO2)C[C@@H]1N1CCCC1 | inactive: -2.97% |
| N#CCCN(C(=O)COC(=O)C(O)(c1ccccc1)c1ccccc1)c1ccc(F)cc1 | inactive: 18.6% |
| CCOP1(=S)c2c(C)nn(CCC#N)c2N=C(c2ccc(F)cc2)N1C (stereo unspecified) | inactive: 14.7% |
| CN(C(=O)Cc1ccccc1)[C@@H]1CC[C@]2(CCCO2)C[C@H]1N1CCCC1 | inactive: -1.43% |
| NC(=O)Nc1ccc([As](=O)(O)O)cc1 | inactive: 5.98% |
| Cc1cccc(OCC(=O)OC2CN3CCC2CC3)c1 (stereo unspecified) | inactive: 6.58% |
| O=[As](O)(c1cccc(O)c1)c1cccc(O)c1 | inactive: -8.2% |
| O=[As](O)(O)c1cccnc1 | inactive: -9.37% |
| COc1cc(C(=O)NCC2(N3CCOCC3)CCCCC2)cc(Cl)c1OC(C)C | inactive: 65% |
| CS(=O)(=O)c1ccc(Cl)c(NC(=O)COC(=O)C(O)(c2ccccc2)c2ccccc2)c1 | inactive: 12.9% |
| O=C(OC1CN2CCC1CC2)c1ccc(Cl)cc1 (stereo unspecified) | inactive: 11.9% |
| COc1cc(C2NCCC3(OCCO3)C2(C)C)cc(OC)c1OC (stereo unspecified) | inactive: 6.69% |
| CCOP(=O)(Nc1cccc2ccccc12)OCC | inactive: -5.92% |
| CCCOP(=S)(Nc1nc(N)cc(=O)[nH]1)OCCC | inactive: 9.41% |
| Nc1cccc2c([As](=O)(O)O)cccc12 | inactive: -22.3% |
| Cc1ccc(NCCc2c([N+](=O)[O-])cc([N+](=O)[O-])cc2[N+](=O)[O-])cc1 | inactive: -8.67% |
| COc1ccc2nc(NP(=O)(c3ccccc3)c3ccccc3)sc2c1 | inactive: 24.7% |
| COc1cc(I)ccc1[As](=O)(O)O | inactive: 11.2% |
| O=C(OC1CN2CCC1CC2)C12CC3CC(CC(C3)C1)C2 (stereo unspecified) | inactive: 50% |
| Cc1cc(=O)[nH]c(N[N+](=O)[O-])n1 | inactive: 7.81% |
| Cc1c2c(nc3ccccc13)SC(C(Cl)Cl)C2 (stereo unspecified) | inactive: -7.24% |

| SMILES | growth rescue |
| --- | --- |
| COc1ccc(N/C(=N/P(=O)(N2CCOCC2)N2CCOCC2)N2CCOCC2)cc1 | inactive: -1.16% |
| Cc1ccc2nc3c(c(C)c2c1)CC(C(Cl)Cl)S3 (stereo unspecified) | inactive: 2.07% |
| Cc1ccc(OP(=O)(Nc2ccc([N+](=O)[O-])cn2)Oc2ccc(C)cc2)cc1 | inactive: 254% |
| O=[As](O)(c1ccc(O)cc1)c1ccccc1O | inactive: -12.4% |
| C[As](=O)(O)c1cccc(C(=O)O)c1 | inactive: -4.65% |
| COc1cc(C(=O)NCC2(N3CCOCC3)CCCCC2)ccc1OCC(C)C | inactive: -24.1% |
| CC(C)NC(=O)NP(=O)(Oc1ccccc1)Oc1ccccc1 | inactive: -0.00085% |
| CCN(CC)C(=S)SC(NC=O)C(Cl)(Cl)Cl (stereo unspecified) | inactive: 11.2% |
| O=[N+]([O-])c1cc([N+](=O)[O-])c(-c2ccn[nH]2)s1 | inactive: -30% |
| CC(C)c1ccc(OP(=O)(Nc2ccccn2)Oc2ccccc2F)cc1 (stereo unspecified) | inactive: 6.83% |
| ClCCSc1nnc(-c2cccnc2)o1 | inactive: -1.41% |
| Cc1cc(SC(NC(=O)c2ccccc2)C(Cl)(Cl)Cl)nc(C(C)C)n1 (stereo unspecified) | inactive: -1.47% |
| CCOC(=O)Nc1ccc([As](=O)(O)O)c(O)c1 | inactive: -4.05% |
| O=[N+]([O-])c1ccc(Nc2ccc(Oc3ccc([N+](=O)[O-])cc3[N+](=O)[O-])cc2)c([N+](=O)[O-])c1 | inactive: 65% |
| O=P(Nc1ccccn1)(c1cccc2ccccc12)c1cccc2ccccc12 | inactive: 92.6% |
| Cc1cc(SC(NC=O)C(Cl)(Cl)Cl)ncn1 (stereo unspecified) | inactive: -12.7% |
| CCOC(=O)Nc1cccc([As](=O)(O)O)c1 | inactive: -18.5% |
| O=C(COc1ccccc1)OC1CN2CCC1CC2 (stereo unspecified) | inactive: -10.9% |
| O=C(Nc1ccncc1[N+](=O)[O-])c1ccc([N+](=O)[O-])cc1[N+](=O)[O-] | inactive: -5.16% |
| COP1(=S)c2c(C)nn(CCC#N)c2N=C(c2ccc(F)cc2)N1C (stereo unspecified) | inactive: 5.3% |
| CCC(C)N(CC(C)C)C(=S)SC(NC(C)=O)C(Cl)(Cl)Cl (stereo unspecified) | inactive: -8.47% |
| CCOC(=O)c1ccc(NC(=O)C(C)(CCl)SC)cc1 (stereo unspecified) | inactive: 193% |
| O=C(OC1CN2CCC1CC2)c1cccc([N+](=O)[O-])c1 (stereo unspecified) | inactive: 415% |
| CC(=O)N1C2C3N(C(C)=O)C1C1N(C(C)=O)C(C(N1C(C)=O)N3C(C)=O)N2C(C)=O | inactive: 4.57% |
| Cc1ccc(NP(=O)(Oc2ccccc2)Oc2ccccc2)nc1 | inactive: 186% |
| CCc1nc2c(n1)c1c(non1O)c1c2no[n+]1[O-] | inactive: 0.721% |

| SMILES | growth rescue |
| --- | --- |
| O=[N+]([O-])c1cc([N+](=O)[O-])c(CCNc2ccccc2)c([N+](=O)[O-])c1 | inactive: 71.6% |
| COc1ccc(C2=NCC(CBr)S2)cc1 (stereo unspecified) | inactive: 10.1% |
| CC(C)=N/N=C(\N)N[N+](=O)[O-] | inactive: 1.72% |
| CN(C)C(=O)OCCc1n(C)cc[n+]1C | inactive: -12.3% |
| CC1CCN(C(=O)Oc2c(Cl)cc(Cl)c3cccnc23)CC1 | inactive: 0.623% |
| Nc1ccc([As](=O)(O)c2ccc(N)cc2)cc1 | inactive: -23% |
| C[N+]1=C2C=CC=CC=C2SC12C([N+](=O)[O-])=CC([N+](=O)[O-])=C[C-]2[N+](=O)[O-] (stereo unspecified) | inactive: -2.48% |
| CCN(/C(=N/P(=O)(N1CCOCC1)N1CCOCC1)N1CCOCC1)c1ccc(OC)cc1 | inactive: -6.84% |
| O=C(Nc1cc([As](=O)(O)O)ccc1O)c1ccccc1 | inactive: -7.18% |
| O=[N+]([O-])c1cccc(NC2=NCC(CBr)S2)c1 (stereo unspecified) | inactive: 6.97% |
| O=C(O)CNc1ccc([As](=O)(O)O)cc1 | inactive: 16.2% |
| CC(C)(C)C(=O)NC(Sc1ccncn1)C(Cl)(Cl)Cl (stereo unspecified) | inactive: -5.53% |
| O=[N+]([O-])c1ncn(CCn2ncnc2[N+](=O)[O-])n1 | inactive: -4.45% |
| Cc1cc(SC(NC(=O)c2ccc(F)cc2)C(Cl)(Cl)Cl)ncn1 (stereo unspecified) | inactive: 8.97% |
| CCOP(=O)(Nc1ccccc1)OCC | inactive: -4.09% |
| Cc1ccc(NP(=O)(Oc2ccccc2F)Oc2ccccc2F)nc1 | inactive: -11.8% |
| CN(C(=O)Cc1ccc(Cl)c(Cl)c1)[C@H]1CCCC[C@@H]1N1CCCC1 | inactive: -0.55% |
| CC(=O)Nc1ccc([As](=O)(O)O)cc1 | inactive: 4.91% |
| O=C(O)c1ccccc1[As](=O)(O)O | inactive: 5.75% |
| O=P(Nc1nc2ccc(Cl)cc2s1)(c1ccccc1)c1ccccc1 | inactive: -8.86% |
| CCN(N=Nc1nonc1N)c1nonc1N | inactive: 2.82% |
| Nc1cccc2ccc([As](=O)(O)O)cc12 | inactive: 5.22% |
| O=[N+]([O-])c1cc([N+](=O)[O-])c(CCN2CCOCC2)c([N+](=O)[O-])c1 | inactive: 147% |
